From ChEMBL document CHEMBL1148684, “Benzimidazole-2-carboxamides as novel NR2B selective NMDA receptor antagonists” (Bioorg Med Chem Lett, 2006)

What was measured:
[1] = molecular target: Glutamate receptor ionotropic, NMDA 2B (Rattus norvegicus, UniProt Q00960); assay: Displacement of [3H]Ro25-6981 from NR2B NMDA receptor in rat forebrain membrane; type: cell membranes
[2] = molecular target: Glutamate NMDA receptor; assay: Inhibition of NMDA-evoked increase in intracellular calcium ion in rat cortical cells; type: functional, cell-based

- IC50 [1]: 196 nM
- IC50 [2]: 191 nM
Structure (SMILES): O=C(/C=C/c1ccc(O)cc1)N1CCC(Cc2ccccc2)CC1
